According to US20020035061A1, “COMPOSITIONS AND METHODS FOR TREATING INFECTIONS USING CATIONIC PEPTIDES ALONE OR IN COMBINATION WITH ANTIBIOTICS” (priority 1996, published 2002):
“And” between values parts separate entries of the source, which are not always exact repeats. Equal values may be shown once. Read-outs that look alike come from different tables or passages of the source.

Tests used:
[1] = system: inherently resistant microorganisms; conditions: for Teicoplanin MIC + MBI 26: in combination with MBI 26
[2] = system: bacterial isolates; conditions: for Teicoplanin + MBI 26: in combination with MBI 26
[3] = system: mammalian red blood cells; conditions: for % Lysis: 37° C., 1 hour
[4] = Circular dichroism spectroscopy; format: physicochemical; conditions: for min λ, Phosphate buffer / Conformation in buffer: 10 mM sodium phosphate buffer, pH 7.2; for Conformation in buffer / Conformation in TFE: CD
[5] = Solubility in broth (visual inspection); format: physicochemical
Procedure: Solubility of the peptide in formulation buffer is an additional parameter that may be examined. Several different assays may be used, such as appearance in buffer. Briefly, peptide is suspended in solution, such as broth or formulation buffer. The appearance is evaluated according to a scale that ranges from (a) clear, no precipitate, (b) light, diffuse precipitate, to (c) cloudy, heavy precipitate. Finer gradations may be used. In general, less precipitate is more desirable. However, some precipitate may be acceptable.
The solubility of peptide analogues is assessed in calcium and magnesium supplemented Mueller Hinton broth by visual inspection. The procedure employed is that used for the broth dilution assay except that bacteria are not added to the wells. The appearance of the solution in each well is evaluated according to the scale: (a) clear, no precipitate, (b) light diffuse precipitate and (c) cloudy, heavy precipitate.

[6] = Single dose toxicity, intraperitoneal injection, formulations; format: in vivo, outbred ICR mice
Procedure: The single dose toxicity of a cationic peptide and antibiotic agent combination is examined in outbred ICR mice. Intraperitoneal injection of the combination in isotonic saline is carried out at increasing dose levels. The survival of the animals is monitored for 7 days. The number of animals surviving at each dose level is used to determine the maximum tolerated dose (MTD). In addition, the MTD can be determined after administration of the peptide and agent by different routes, at different time points, and in different formulations.
The single dose toxicity of MBI 10CN and MBI 11CN is examined in outbred ICR mice (Table 32).
The single dose toxicity of MBI 10CN and MBI 11CN in different formulations is also examined in outbred ICR mice (Table 36). Intraperitoneal injection (groups of 2 mice) of MBI 10CN in formulation D show no toxicity up to 29 mg/kg and under the same conditions MBI 11CN show no toxicity up to 40 mg/kg.

[7] = Single and multiple dose toxicity, intravenous injection, formulations; format: in vivo, outbred ICR mice
[8] = Acute single dose toxicity, intraperitoneal route, isotonic saline; format: in vivo; conditions: Swiss CD1 mice, 5 days
Procedure: In vivo toxicity of a peptide is measured through administration of a range of doses to animals, typically mice, by a route defined in part by the intended clinical use. The survival of the animals is recorded and LD50, LD90-100, and maximum tolerated dose (MTD) can be calculated to enable comparison of analogues. Indolicidin analogues less toxic than indolicidin are preferred.
(§1) The acute, single dose toxicity of various indolicidin analogues is tested in Swiss CD1 mice using various routes of administration. In order to determine the inherent toxicities of the peptide analogues in the absence of any formulation/delivery vehicle effects, the peptides are all administered in isotonic saline with the final pH between 6 and 7.
Intraperitoneal route. Groups of 6 mice are injected with peptide doses of between 80 and 5 mg/kg in 500 μl dose volumes. […] The LD50 values are calculated using the method of Reed and Muench (J. of Amer. Hyg. 27:493-497, 1938).

[9] = Peptide stability in rabbit serum or plasma, with or without protease inhibitors; format: in vitro ADME; conditions: 22° C., Amastatin and bestatin at 100 μM
Procedure: A 1 mg/mL solution of MBI 11B7CN in isotonic saline is added to freshly prepared heat-inactivated rabbit serum, to give a final peptide concentration of 100 μg/mL and is incubated at 32° C.
A series of peptide stability studies are performed to investigate the action of protease inhibitors on peptide degradation. Peptide is added to rabbit serum or plasma, either with or without protease inhibitors, then incubated at 22° C. for 3 hrs. Protease inhibitors tested include amastatin, bestatin, COMPLETE protease inhibitor cocktail, leupeptin, pepstatin A and EDTA. […] For this experiments 10 mM stock solutions of amastatin and bestatin are prepared in dimethylsulfoxide. These solutions are diluted 1:100 in heat-inactivated rabbit serum and incubated at 22° C. for 15 mins prior to addition of peptide. MBI 11B7CN is added to the serum at a final concentration of 100 μg/mL and incubated for 3 hrs at 22° C. After the incubation period, the serum samples are analyzed on an analytical C8 column (Waters Nova Pak C8 3.9×170 mm) with detection at 280 nm. In FIG. 13, MBI 11B7CN elutes at 25 min.
Peptide is extracted from plasma using C8 Sep Pak cartridges at peptide concentrations between 0 and 50 μg/mL. Each extraction also contains MBI 11CN at 10 μg/mL as an internal standard. […] The peptides are detected at 280 nm. […] MBI 11B7CN is detected over background at concentrations of 5 μg/mL and above.

[10] = Acute single dose toxicity, intravenous route, isotonic saline; format: in vivo; conditions: Swiss CD1 mice, 5 days
Procedure: In vivo toxicity of a peptide is measured through administration of a range of doses to animals, typically mice, by a route defined in part by the intended clinical use. […]. Indolicidin analogues less toxic than indolicidin are preferred.
as §1
Intravenous route. […]. […]

[11] = system: sheep RBC; assay: Red blood cell (RBC) lysis assay, standardized conditions (1% RBC); format: cell-based; conditions: 1% (v/v) sheep RBC, pH 6-7; for % lysis at 5 μg/ml: 5 μg/ml peptide; for % lysis at 50 μg/ml: 50 μg/ml peptide; for % lysis at 500 μg/ml: 500 μg/ml peptide
[12] = system: E. cloacae; conditions: E. cloacae ECL007; unmodified parent peptide
[13] = CD spectrum, phosphate buffer and 40% (v/v) trifluoroethanol
[14] = phosphate buffer and 40% (v/v) trifluoroethanol

Teicoplanin
Teicoplanin MIC Alone ([1]; E. casseliflavus VanC strains): 0.5 µg/mL
Teicoplanin MIC + MBI 26 ([1]; E. casseliflavus VanC strains): 0.25 µg/mL
Teicoplanin MIC + MBI 26 ([1]; E. gallinarum VanC strains): 0.25 µg/mL
Teicoplanin Alone ([2]; E. faecalis 97040 VanB): 0.5 µg/mL
Teicoplanin + MBI 26 ([2]; E. faecalis 97040 VanB): 0.25 µg/mL
Teicoplanin Alone ([2]; E. faecalis 97041 VanB): 1 µg/mL
Teicoplanin + MBI 26 ([2]; E. faecalis 97041 VanB): 0.25 µg/mL
Teicoplanin Alone ([2]; E. faecalis 97042 VanB): 1 µg/mL
Teicoplanin + MBI 26 ([2]; E. faecalis 97042 VanB): 0.25 µg/mL
Teicoplanin Alone ([2]; E. faecalis 97043 VanB): 0.5 µg/mL
Teicoplanin + MBI 26 ([2]; E. faecalis 97043 VanB): 0.25 µg/mL
Teicoplanin Alone ([2]; E. faecium 97001 VanB): 0.5 µg/mL
Teicoplanin + MBI 26 ([2]; E. faecium 97001 VanB): 0.25 µg/mL
Teicoplanin Alone ([2]; E. faecium 97002 VanB): 0.5 µg/mL
Teicoplanin + MBI 26 ([2]; E. faecium 97002 VanB): 0.25 µg/mL
Teicoplanin Alone ([2]; E. faecium 97003 VanB): 0.5 µg/mL
Teicoplanin + MBI 26 ([2]; E. faecium 97003 VanB): 0.25 µg/mL
Teicoplanin Alone ([2]; E. faecium 97005 VanB): 1 µg/mL
Teicoplanin + MBI 26 ([2]; E. faecium 97005 VanB): 0.25 µg/mL
Teicoplanin Alone ([2]; E. faecium 97006 VanB): 0.5 µg/mL
Teicoplanin + MBI 26 ([2]; E. faecium 97006 VanB): 0.5 µg/mL
Teicoplanin Alone ([2]; E. faecium 97007 VanB): 0.5 µg/mL
Teicoplanin + MBI 26 ([2]; E. faecium 97007 VanB): 0.25 µg/mL
Teicoplanin Alone ([2]; E. faecium 97008 VanB): 0.5 µg/mL
Teicoplanin + MBI 26 ([2]; E. faecium 97008 VanB): 0.25 µg/mL
Teicoplanin Alone ([2]; E. faecium 97009 VanB): 0.5 µg/mL
Teicoplanin + MBI 26 ([2]; E. faecium 97009 VanB): 0.25 µg/mL
Teicoplanin Alone ([2]; E. faecium 97010 VanB): 0.5 µg/mL
Teicoplanin + MBI 26 ([2]; E. faecium 97010 VanB): 0.25 µg/mL
Teicoplanin Alone ([2]; E. faecium 97011 VanB): 0.5 µg/mL
Teicoplanin + MBI 26 ([2]; E. faecium 97011 VanB): 0.25 µg/mL
Teicoplanin Alone ([2]; E. faecium 97012 VanB): 8 µg/mL
Teicoplanin + MBI 26 ([2]; E. faecium 97012 VanB): 0.25 µg/mL
Teicoplanin Alone ([2]; E. faecium 97013 VanB): 8 µg/mL
Teicoplanin + MBI 26 ([2]; E. faecium 97013 VanB): 0.25 µg/mL
Teicoplanin Alone ([2]; E. faecium 97014 VanB): 8 µg/mL
Teicoplanin + MBI 26 ([2]; E. faecium 97014 VanB): 0.25 µg/mL
Teicoplanin Alone ([2]; E. faecium 97015 VanB): 0.5 µg/mL
Teicoplanin + MBI 26 ([2]; E. faecium 97015 VanB): 0.25 µg/mL
Teicoplanin Alone ([2]; E. faecium 97016 VanB): 0.5 µg/mL
Teicoplanin + MBI 26 ([2]; E. faecium 97016 VanB): 0.25 µg/mL

ILPWKWPWWPWRR [MBI 10CN]
lysis [3]: 3.9%
red blood cell lysis [3]: substantial lysis
% Lysis [3]: 4.3%
min λ, Phosphate buffer ([4]; CD spectrum): 201 nm
max λ, TFE [4, 13]: ˜219 nm
min λ, TFE [4, 13]: 203 nm
Conformation in buffer [4]: Unordered
Conformation in TFE [4, 14]: Unordered
solubility in calcium and magnesium supplemented Mueller Hinton broth ([5]; visual inspection): less soluble than MBI 11CN
MTD ([6]; Intraperitoneal injection, single dose, outbred ICR mice (Table 32)): >29 mg/kg
MTD ([6]; ip, formulation D, ICR mice): 29 mg/kg and >29 mg/kg
dose showing no toxicity ([6]; ip, formulation D, groups of 2 mice): up to 29 mg/kg
MTD ([7]; Intravenous injection, single dose, outbred ICR mice (Table 32)): 5.6 mg/kg
MTD ([7]; iv, formulation D): 5.6 mg/kg
toxicity ([7]; iv, formulation D, 11 mg/kg): 40%
toxicity ([7]; iv, formulation D, 22 mg/kg): 100%
MTD ([7]; iv, formulation D, ICR mice): 5.6 mg/kg

ILRWPWWPWRRK [MBI 11B7CN]
LD50 [8]: 52 mg/kg
LD90-100 [8]: >80 mg/kg
MTD [8]: 30 mg/kg
% Lysis [3]: 3.2%
degradation of peptide in plasma over 3 hrs [9]: prevent the degradation
min λ, Phosphate buffer ([4]; CD spectrum): 200 nm
Conformation in buffer [4]: Unordered
Conformation in TFE [4, 14]: Unordered
LD50 [10]: 7.5 mg/kg
LD90-100 [10]: 16 mg/kg
MTD [10]: 4 mg/kg
% lysis at 5 μg/ml [11]: 4%
% lysis at 50 μg/ml [11]: 13%
% lysis at 500 μg/ml [11]: 46%

ILRWVWWVWRRK [MBI 11F4CN]
MIC, Peptide [12]: 32 µg/mL
hemolytic, relative to the peptides tested [3]: most insoluble and hemolytic
min λ, Phosphate buffer ([4]; CD spectrum): 202, nm and 220 nm
min λ, TFE [4, 13]: 206, nm and 222 nm
Conformation in buffer [4]: Unordered
LD50 [10]: 15 mg/kg
LD90-100 [10]: 20 mg/kg
MTD [10]: 12 mg/kg
% lysis at 5 μg/ml [11]: 4%
% lysis at 50 μg/ml [11]: 32%
% lysis at 500 μg/ml [11]: 38%
solubility, relative to the peptides tested [5]: most insoluble
